# Measured values as given in ChEMBL document CHEMBL1142524, “Virtual screening to successfully identify novel janus kinase 3 inhibitors: a sequential focused screening approach” (J Med Chem, 2008).
# Protein sequences, listed by entry. Tags and fused reporters are not part of them. Lines headed by an entry give the natural chain unless they say otherwise; changes in a name come on top.
# UniProt P23458: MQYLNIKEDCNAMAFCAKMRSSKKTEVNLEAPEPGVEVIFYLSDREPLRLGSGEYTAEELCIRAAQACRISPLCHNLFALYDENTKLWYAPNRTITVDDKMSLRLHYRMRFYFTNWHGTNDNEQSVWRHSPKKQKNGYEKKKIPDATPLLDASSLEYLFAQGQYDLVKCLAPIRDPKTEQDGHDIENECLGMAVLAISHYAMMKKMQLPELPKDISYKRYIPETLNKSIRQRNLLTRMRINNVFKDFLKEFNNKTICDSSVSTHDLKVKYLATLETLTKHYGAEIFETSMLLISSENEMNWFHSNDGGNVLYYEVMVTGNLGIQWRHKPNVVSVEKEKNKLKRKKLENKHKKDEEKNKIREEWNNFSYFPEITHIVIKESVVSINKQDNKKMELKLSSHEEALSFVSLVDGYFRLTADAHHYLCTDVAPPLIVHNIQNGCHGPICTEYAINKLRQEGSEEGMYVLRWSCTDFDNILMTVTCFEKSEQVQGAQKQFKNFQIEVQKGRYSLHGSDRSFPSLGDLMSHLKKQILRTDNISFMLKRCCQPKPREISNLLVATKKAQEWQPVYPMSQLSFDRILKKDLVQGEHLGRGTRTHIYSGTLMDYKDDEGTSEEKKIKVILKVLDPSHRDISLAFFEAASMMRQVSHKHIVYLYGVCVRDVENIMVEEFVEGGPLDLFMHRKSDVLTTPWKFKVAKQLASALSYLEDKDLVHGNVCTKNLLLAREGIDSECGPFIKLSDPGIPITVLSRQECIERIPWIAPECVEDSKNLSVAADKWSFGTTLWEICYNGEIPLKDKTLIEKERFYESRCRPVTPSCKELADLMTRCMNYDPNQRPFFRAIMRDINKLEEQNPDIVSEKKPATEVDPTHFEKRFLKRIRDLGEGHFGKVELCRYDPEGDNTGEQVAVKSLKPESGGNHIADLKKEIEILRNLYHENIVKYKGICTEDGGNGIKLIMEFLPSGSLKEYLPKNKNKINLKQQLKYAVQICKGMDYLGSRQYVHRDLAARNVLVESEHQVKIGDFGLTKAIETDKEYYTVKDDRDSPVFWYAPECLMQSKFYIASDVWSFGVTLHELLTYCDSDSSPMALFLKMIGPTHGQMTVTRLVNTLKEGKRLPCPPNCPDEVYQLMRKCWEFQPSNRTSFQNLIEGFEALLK
# pIC50: −log10 of the molar value.
# Target: Tyrosine-protein kinase JAK1 (Homo sapiens, UniProt P23458)
smiles,measurement,value
CC(C)(C)c1nc2c3ccc(F)cc3c3c(=O)[nH]ccc3c2[nH]1,pIC50,7.82
